The numbers were not newly measured in US20240009213A1, “TREATMENT FOR VIRAL INFECTION” (priority 2020, published 2024), which cites them from elsewhere.

Sequences of proteins named here, by UniProt entry; tags and fusion partners are left off. Residues count along the entry.
UniProt P29376, 17-864: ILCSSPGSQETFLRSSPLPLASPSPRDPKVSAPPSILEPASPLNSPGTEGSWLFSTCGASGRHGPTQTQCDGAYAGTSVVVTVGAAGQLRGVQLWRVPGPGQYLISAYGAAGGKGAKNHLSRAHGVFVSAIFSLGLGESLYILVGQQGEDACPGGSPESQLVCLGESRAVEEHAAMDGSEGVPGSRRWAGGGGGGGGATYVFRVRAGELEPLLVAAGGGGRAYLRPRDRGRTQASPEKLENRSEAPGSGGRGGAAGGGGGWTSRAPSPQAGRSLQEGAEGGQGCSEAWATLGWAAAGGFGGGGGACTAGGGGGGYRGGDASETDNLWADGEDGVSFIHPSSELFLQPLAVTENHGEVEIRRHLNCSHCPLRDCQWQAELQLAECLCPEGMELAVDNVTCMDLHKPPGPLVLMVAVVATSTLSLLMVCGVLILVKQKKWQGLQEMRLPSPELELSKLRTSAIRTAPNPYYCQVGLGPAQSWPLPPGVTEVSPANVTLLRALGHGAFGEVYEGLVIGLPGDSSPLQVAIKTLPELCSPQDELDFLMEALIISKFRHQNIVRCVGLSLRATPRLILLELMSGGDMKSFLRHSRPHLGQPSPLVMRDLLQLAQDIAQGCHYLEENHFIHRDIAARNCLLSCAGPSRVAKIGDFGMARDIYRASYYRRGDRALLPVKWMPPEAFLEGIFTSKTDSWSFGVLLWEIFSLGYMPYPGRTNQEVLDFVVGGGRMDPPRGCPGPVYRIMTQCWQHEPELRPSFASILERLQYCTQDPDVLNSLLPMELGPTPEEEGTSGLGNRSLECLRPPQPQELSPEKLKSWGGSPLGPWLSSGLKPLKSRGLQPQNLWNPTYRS

The target in the data set is LTK (Homo sapiens, UniProt P29376). The following applies: previous work; cited from earlier work.

Turning to `C[C@H]1Oc2cc(cnc2N)-c2c(nn(C)c2C#N)CN(C)C(=O)c2ccc(F)cc21` [lorlatinib], the “activity towards LTK” value is on record as “low activity towards LTK”.
